{"source": "PubChem BioAssay AID504323", "about": "(Broad Institute, 2011)", "assay": "U2OS reporter cell viability with added zinc – zinc-supplemented medium, dry powder, cytotoxicity control for HIF pathway activator project, dose response (AID 504323)", "conditions": "U2OS HRE-luciferase cells, luminescence, at 38 µM (top of the series)", "how_it_was_run": "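Material – U2OS 3×HRE-luciferase reporter cells · Quantity – 6,000 cells/well · Medium – 50 µM zinc sulfate final · Doses – Eight-point compound series with threefold dilution steps · Timing – 24 h attachment, then 24 h compound exposure at 37 °C · Technique – CellTiter-Glo luminescence for cell viability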", "note": "This is a selection; strong and weak results do not stand in their true shares. Active and inactive are the calls of the source.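 The calls were made as follows: active = compounds lowering the viability signal whose fitted AC50 is no more than ten times their top tested dose; inconclusive = flat fit with a 30 to 70% drop, or poor fit; inactive = the rest.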"}
{"smiles": "O=c1[nH]c2ccccc2n1C1CCN(Cc2ccc(O)c3ncccc23)CC1", "values": [{"measurement": "activity change, negative = toxicity", "value": "inactive: -7.17%"}]}
